These results are taken from patent publication US5712148A (Synaptic Pharmaceutical Corporation, priority 1995, dated 1998).

Protein sequences, listed by entry. Tags and fused reporters are not part of them. Lines headed by an entry give the natural chain unless they say otherwise; changes in a name come on top.
UniProt P48065: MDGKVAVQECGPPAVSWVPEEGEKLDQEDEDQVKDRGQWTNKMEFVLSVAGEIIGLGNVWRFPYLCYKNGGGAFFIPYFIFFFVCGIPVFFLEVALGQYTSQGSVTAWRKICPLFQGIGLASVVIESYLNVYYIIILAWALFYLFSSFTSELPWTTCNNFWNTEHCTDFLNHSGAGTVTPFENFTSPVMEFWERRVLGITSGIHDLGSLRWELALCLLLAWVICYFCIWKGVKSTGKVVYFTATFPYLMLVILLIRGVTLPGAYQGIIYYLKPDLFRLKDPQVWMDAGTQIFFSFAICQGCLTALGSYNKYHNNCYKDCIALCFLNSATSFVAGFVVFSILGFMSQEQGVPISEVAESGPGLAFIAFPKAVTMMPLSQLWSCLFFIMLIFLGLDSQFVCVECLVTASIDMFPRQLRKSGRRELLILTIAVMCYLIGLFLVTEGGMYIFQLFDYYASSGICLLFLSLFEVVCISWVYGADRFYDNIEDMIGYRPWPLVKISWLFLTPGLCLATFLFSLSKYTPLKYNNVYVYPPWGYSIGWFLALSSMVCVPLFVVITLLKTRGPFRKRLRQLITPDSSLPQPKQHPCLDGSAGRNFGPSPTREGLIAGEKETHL

“And” between values parts separate entries of the source, which are not always exact repeats. Identical values can stand only once.

The target of the assay is T1, hS1a (human betaine/GABA transporter, hBGT) (Homo sapiens, UniProt P48065).
T1 sequence (P48065 1-614 C10Y): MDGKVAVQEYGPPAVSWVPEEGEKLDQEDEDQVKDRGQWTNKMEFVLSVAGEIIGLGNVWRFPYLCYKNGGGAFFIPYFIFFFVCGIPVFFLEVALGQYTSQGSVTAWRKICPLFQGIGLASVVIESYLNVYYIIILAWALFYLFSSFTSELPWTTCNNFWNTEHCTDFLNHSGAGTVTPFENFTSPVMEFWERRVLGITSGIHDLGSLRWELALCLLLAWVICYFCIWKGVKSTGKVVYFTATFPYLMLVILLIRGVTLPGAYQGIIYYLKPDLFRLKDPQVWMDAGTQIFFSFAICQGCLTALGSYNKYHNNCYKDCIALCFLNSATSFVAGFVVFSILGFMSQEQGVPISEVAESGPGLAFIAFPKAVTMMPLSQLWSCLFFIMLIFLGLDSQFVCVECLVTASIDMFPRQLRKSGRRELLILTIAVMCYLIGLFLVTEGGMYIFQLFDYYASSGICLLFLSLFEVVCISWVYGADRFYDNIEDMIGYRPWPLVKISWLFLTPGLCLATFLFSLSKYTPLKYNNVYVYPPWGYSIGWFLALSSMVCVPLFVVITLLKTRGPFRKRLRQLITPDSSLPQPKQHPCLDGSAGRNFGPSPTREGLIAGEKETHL
Nature of the assay: Inhibition of specific [^3 H]GABA uptake in COS7 (transient) or LMtk- (stable; hS1a-3) cells expressing hS1a. Format: cell-based. Also on record: Translation of a long open reading frame predicts a protein of 614 amino acids with 12 putative transmembrane domains; expressed in transfected cells. Conditions: estimated from data for one or two concentrations of inhibitor (Table 1), not corrected for [^3 H]GABA concentration.

A word on the IC50: it is the concentration needed to halve the response being measured.

Turning to `O=C(O)C1CCCNC1` (stereo not shown) [nipecotic acid], the IC50 was 194 µM and 150 to 250 µM.
